Test system: Aorta
Test: Vasodilatory activity in Wistar rat endothelium-denuded thoracic aortic ring assessed as inhibition of phenylephrine-induced contraction […]
Type: functional, tissue-based
In short: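 Endothelium-denuded rat aorta strips are precontracted with phenylephrine. At the plateau, cumulative concentrations of test agent in DMSO are added. Relaxation is recorded isometrically and reported as EC50 ± SEM (μM). In a separate series, 1 μM ODQ is added 5 min before contraction, giving at least 30 min of preincubation before the vasodilator. At least five experiments.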

Row | SMILES | Activity
1 | O=C(O)CCCC(CO[N+](=O)[O-])O[N+](=O)[O-] (configuration not stated) | Dose-dependent effect
2 | O=C(O)CCCCC(CO[N+](=O)[O-])O[N+](=O)[O-] (configuration not stated) | Dose-dependent effect

Reference: ChEMBL document CHEMBL1151960, “(Nitrooxyacyloxy)methyl esters of aspirin as novel nitric oxide releasing aspirins” (J Med Chem, 2009)
